Reference: US11396517B1, “Exo-aza spiro inhibitors of menin-MLL interaction” (Janssen Pharmaceutica NV, priority 2017, dated 2022)

Sequences of proteins named here, by UniProt entry; tags and fusion partners are left off. A line that says so, or that is headed by a name, gives the form on record, which may keep a tag or linker. Residues count along the entry.
UniProt O00255, 1-610 with tags or gaps T541A limits assumed: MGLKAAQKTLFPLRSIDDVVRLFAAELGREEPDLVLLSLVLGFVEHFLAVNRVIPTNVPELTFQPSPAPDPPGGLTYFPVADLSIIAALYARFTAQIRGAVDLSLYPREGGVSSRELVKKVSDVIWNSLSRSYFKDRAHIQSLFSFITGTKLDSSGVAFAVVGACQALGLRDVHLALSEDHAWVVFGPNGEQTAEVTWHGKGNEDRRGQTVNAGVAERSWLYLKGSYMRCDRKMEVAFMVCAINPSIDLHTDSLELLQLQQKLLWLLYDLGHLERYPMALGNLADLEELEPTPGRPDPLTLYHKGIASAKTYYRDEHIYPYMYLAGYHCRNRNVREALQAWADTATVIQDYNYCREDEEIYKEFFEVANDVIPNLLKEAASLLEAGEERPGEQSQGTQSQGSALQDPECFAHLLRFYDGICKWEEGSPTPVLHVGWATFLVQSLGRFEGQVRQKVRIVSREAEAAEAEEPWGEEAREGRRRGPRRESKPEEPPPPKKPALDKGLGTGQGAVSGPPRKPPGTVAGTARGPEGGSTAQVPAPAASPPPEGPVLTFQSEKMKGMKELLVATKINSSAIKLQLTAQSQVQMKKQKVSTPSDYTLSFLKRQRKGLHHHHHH

Tests used:
menin = menin (Homo sapiens, UniProt O00255, T541A); assay: Menin/MLL homogenous time-resolved fluorescence (HTRF) assay; settings: read-out: (2) location 2 Menin HTRF assay (IC50 (nM))
MV-4-11 [1] = assay: Proliferation assay A (spheroid assay) MV-4-11; settings: read-out: (3a) Spheroid assay MV-4-11 (IC50(μM)) Assay A; MV-4-11 cells, 8 d, AUC of confluence against time, absolute IC50
MOLM14 = assay: Proliferation assay B (spheroid assay) MOLM14; settings: read-out: (3b) Spheroid assay MOLM14 (IC50(μM)) Assay B; MOLM14 cells, confluence at day 8, absolute IC50
MV-4-11 [2] = assay: Proliferation assay B (spheroid assay) MV-4-11; settings: read-out: (3b) Spheroid assay MV-4--11 (IC50(μM)) Assay B; MV-4-11 cells, confluence at day 8, absolute IC50

Row | SMILES | IC50 (menin) | IC50 (MV-4-11 [1]) | IC50 (MOLM14) | IC50 (MV-4-11 [2])
1 | N#CCc1cccc(NC2CC3(CCN(c4ncnc5sc(CC(F)(F)F)cc45)C3)C2)c1 (single isomer, unassigned) | 58.3 nM | 2.3 µM | – | –
2 | CNC(=O)c1ccc(NC2CC3(CCN(c4ncnc5sc(CC(F)(F)F)cc45)C3)C2)cc1C (single isomer, unassigned) | 11.8 nM | – | 2.9 µM | –
3 | CC(C)(C#N)c1ccc(NC2CC3(CCN(c4ncnc5sc(CC(F)(F)F)cc45)C3)C2)cc1 (single isomer, unassigned) | 12.4 nM | 0.95 µM | – | –
4 | N#CCc1ccc(NC2CC3(CCN(c4ncnc5sc(CC(F)(F)F)cc45)C3)C2)cc1F (single isomer, unassigned) [Compound 200] | 3.6 nM | 0.92 µM | – | –
5 | CS(=O)(=O)N[C@H]1CC[C@@H](NC2CC3(CCN(c4ncnc5sc(CC(F)(F)F)cc45)C3)C2)CC1 (single isomer, unassigned) | – | – | 2.94 µM | –
6 | N#CCc1ccc(NC2CC3(CCN(c4ncnc5sc(CC(F)(F)F)cc45)C3)C2)cc1F (single isomer, unassigned) [Compound 199] | 58.3 nM | 3.16 µM | – | –
7 | Cc1nc(N2CCC3(CC(Nc4ccccc4)C3)C2)c2cc(CC(F)(F)F)sc2n1 (single isomer, unassigned) | 246 nM | – | – | –
8 | CNC(=O)c1ccc(NC2CC3(CCN(c4ncnc5sc(CC(F)(F)F)cc45)C3)C2)c(C)c1 (single isomer, unassigned) | 4.7 nM | – | 1.04 µM | –
9 | FC(F)(F)Cc1cc2c(N3CCC4(CC(Nc5ccncc5)C4)C3)ncnc2s1 (single isomer, unassigned) | 97 nM | – | > 3.75 µM | 2.6 µM
